Experimental data as given in patent US20230091225A1, “Bifunctional chimeric heterocyclic compounds for targeted degradation of androgen receptors and use thereof” (HINOVA PHARMACEUTICALS INC., priority 2019, published 2023).

Protein sequences, listed by entry. Tags and fused reporters are not part of them. Lines headed by an entry give the natural chain unless they say otherwise; changes in a name come on top.
UniProt P10275: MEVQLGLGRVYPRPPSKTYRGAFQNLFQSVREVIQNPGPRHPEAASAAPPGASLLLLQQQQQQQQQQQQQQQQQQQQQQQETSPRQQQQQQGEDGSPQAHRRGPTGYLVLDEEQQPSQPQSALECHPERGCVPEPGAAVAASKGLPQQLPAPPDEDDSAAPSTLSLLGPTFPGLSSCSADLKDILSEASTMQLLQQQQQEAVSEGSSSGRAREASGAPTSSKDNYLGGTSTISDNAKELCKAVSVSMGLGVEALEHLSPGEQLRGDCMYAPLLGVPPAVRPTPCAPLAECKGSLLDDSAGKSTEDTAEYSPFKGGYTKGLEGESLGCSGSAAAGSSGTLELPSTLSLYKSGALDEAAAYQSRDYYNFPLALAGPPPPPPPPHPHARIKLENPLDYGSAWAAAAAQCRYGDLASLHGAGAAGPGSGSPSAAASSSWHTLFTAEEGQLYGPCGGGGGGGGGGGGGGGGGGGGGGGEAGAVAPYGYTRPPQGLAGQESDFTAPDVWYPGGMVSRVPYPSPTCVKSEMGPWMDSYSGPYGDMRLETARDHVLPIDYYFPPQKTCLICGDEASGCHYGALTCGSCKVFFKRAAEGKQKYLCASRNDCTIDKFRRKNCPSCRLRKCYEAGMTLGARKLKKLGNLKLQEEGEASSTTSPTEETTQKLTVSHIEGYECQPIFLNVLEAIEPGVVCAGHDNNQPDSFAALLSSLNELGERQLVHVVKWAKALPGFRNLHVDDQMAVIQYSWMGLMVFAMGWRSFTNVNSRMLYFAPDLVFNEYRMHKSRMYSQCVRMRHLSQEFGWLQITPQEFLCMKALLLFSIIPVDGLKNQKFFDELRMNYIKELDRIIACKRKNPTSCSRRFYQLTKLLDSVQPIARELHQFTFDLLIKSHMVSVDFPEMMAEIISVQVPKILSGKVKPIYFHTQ

Tests used:
[1] = target: T1, androgen receptor (AR) (Homo sapiens, UniProt P10275); assay: Degradation of androgen receptor (AR) protein in VCaP cells by ELISA; format: cell-based
[2] = target: T1, androgen receptor (AR); assay: Degradation of androgen receptor (AR) protein in VCaP cells by Western blot; format: cell-based; settings: percentage of degraded AR at 100 nM, 16 h
Experimental: Determination of the Degradation Activity of the Compound on Androgen Receptor (AR) Protein by Western Blot
1) VCaP cells were subcultured in cell culture media, and then the cells in good growth condition were seeded in a 12-well plate at 1 ml/well (5×10^5 cells/well), and cultured overnight in a 37° C., 5% CO2 cell incubator. 2) The test compound was prepared into a 10 mM stock solution with dimethyl sulfoxide (DMSO). Prior to use, the solution was diluted 3 times with DMSO. […] of the diluted compound solution was added to the cell culture well (ensuring that the DMSO concentration in the culture system was 0.1%), and two wells were set for each concentration. The plate was gently shaken to mix. In addition, the experiment included negative control wells (containing equal amount of DMSO) and positive control wells. 3) After culturing 16 h. the cells were lysed with RIPA cell lysate, and the protein was extracted. The protein concentration was measured with BCA kit. 5-fold concentrated protein loading buffer was added, and after heated at 100° C. for 5 min. the sample was stored at −20° C. 4) for each well, 30 μg of protein was loaded on polyacrylamide gel for electrophoresis. 5) The protein was transferred from polyacrylamide gel to PVDF membrane, and then 5% skim milk was added to close for 1 h at room temperature. […]

Row | Substance | DC50 [1] [nM] | Dmax (%) [1] | % degradation [2]
1 | 2-chloro-4-((1r,3r)-3-(2-(4-((2-(2,6-dioxopiperidin-3-yl)-6-fluoro-1,3-dioxoisoindolin-5-yl)-2,7-diazaspiro[3.5]nonane-7-yl)methyl)piperidin-1-yl)-5-oxo-5,7-dihydro-6H-pyrrolo[3,4-b]pyridin-6-yl)-2,2,4,4-tetramethylcyclobutoxy) benzonitrile [Compound 90] | 10 to 100 | +++ (key: ++++: >80%; +++: 80%-60%; ++: 60%-40%; +: <40%) | 
2 | 2-chloro-4-((1r,4r)-4-(2-(4-((4-(3-(2,6-dioxopiperidin-3-yl)-2-methyl-4-oxo-3,4-dihydroquinazoline-7-yl)piperazin-1-yl)methyl)piperidin-1-yl)-5-oxo-5H-pyrrolo[3,4-b]pyridin-6(7H)-yl)cyclohexyl)oxy)benzonitrile [Compound 309] |  |  | C (49%-25%)
